Experiments:
[1] = molecular target: T1, Alpha-1A adrenergic receptor (Rattus norvegicus, UniProt P43140)
T1 sequence (P43140 whole entry): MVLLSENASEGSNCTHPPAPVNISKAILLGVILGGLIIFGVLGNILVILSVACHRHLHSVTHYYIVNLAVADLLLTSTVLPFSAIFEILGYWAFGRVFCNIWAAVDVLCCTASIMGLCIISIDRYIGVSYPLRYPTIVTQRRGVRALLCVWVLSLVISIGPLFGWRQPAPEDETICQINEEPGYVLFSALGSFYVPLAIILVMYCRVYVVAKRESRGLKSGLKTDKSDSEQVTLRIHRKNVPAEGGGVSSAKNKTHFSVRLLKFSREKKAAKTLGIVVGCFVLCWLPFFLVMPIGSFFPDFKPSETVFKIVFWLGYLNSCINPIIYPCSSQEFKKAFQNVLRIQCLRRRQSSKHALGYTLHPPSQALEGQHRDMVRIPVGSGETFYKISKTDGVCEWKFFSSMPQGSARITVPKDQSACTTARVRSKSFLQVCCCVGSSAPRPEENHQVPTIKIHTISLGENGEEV

The chains behind the UniProt entries cited, without tags or fusion partners.
UniProt P18841, whole entry: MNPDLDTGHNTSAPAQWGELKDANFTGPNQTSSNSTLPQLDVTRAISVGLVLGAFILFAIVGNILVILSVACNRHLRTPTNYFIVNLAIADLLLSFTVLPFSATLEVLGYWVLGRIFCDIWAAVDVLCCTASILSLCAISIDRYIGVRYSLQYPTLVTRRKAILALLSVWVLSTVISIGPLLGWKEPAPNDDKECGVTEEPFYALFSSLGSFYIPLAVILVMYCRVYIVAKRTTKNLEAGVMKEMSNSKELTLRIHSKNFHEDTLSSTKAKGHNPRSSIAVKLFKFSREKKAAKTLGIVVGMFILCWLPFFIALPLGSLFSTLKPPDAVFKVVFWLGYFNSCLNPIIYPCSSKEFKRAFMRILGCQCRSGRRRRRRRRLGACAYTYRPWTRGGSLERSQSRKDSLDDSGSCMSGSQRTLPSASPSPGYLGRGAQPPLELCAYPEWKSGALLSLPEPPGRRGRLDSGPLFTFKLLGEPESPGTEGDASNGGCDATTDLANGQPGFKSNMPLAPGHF

[2] = molecular target: Alpha-1B adrenergic receptor (Cricetidae sp., UniProt P18841)
[3] = molecular target: T2, Alpha-1A adrenergic receptor (Bos taurus, UniProt P18130)
T2 sequence (P18130 whole entry): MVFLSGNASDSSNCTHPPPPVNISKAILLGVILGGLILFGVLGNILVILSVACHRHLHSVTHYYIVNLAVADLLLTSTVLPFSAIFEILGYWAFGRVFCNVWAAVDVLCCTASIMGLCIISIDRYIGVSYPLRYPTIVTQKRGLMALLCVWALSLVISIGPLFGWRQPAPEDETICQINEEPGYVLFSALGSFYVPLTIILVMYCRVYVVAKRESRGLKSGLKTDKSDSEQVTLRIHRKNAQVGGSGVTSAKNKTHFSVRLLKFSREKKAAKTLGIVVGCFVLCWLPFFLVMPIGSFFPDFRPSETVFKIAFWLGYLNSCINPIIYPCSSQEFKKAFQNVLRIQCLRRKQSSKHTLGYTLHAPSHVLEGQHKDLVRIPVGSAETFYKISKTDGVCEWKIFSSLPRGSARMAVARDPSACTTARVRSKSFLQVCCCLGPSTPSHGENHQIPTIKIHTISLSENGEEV

Row | SMILES | Ki [1] [nM] | Ki [2] [nM] | Ki [3] [nM]
1 | O=C(CCCN1CCC2(CC1)C(=O)NCN2c1ccccc1)c1ccc(F)cc1 [8-[4-(4-fluorophenyl)-4-oxidanylidene-butyl]-1-phenyl-1,3,8-triazaspiro[4.5]decan-4-one] | 39.8 | 31.6 | –
2 | COc1cc2nc(N3CCN(C(=O)C4CCCO4)CC3)nc(N)c2cc1OC (stereo not given) [6,7-dimethoxy-2-[4-(tetrahydrofuran-2-ylcarbonyl)piperazin-1-yl]quinazolin-4-amine] | 5.01 | – | –
3 | CNCC(O)c1ccc(O)c(O)c1 (stereo not given) [EPINEPHRINE] | 251 | – | 7940

— BindingDB's records for PubMed 7815325 (Duke University, 1995)
